# Measured affinities in a library of Ab-95 light chain variants

From the AlphaSeq antibody data of Engelhart et al. 2022 (doi:10.1038/s41597-022-01779-4), copy in the FLAb collection.

Antigen: PDVDLGDISGINAS, a 14-residue peptide of the SARS-CoV-2 spike HR2 region.

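Variants in AAYL52 differ from the parent at up to three CDR positions; double and triple changes were sampled at random. The assay is AlphaSeq: two haploid yeast populations carry antibody and antigen on their surface. After mating in shaken culture at 30 °C for 16 h, diploids were selected and their barcode pairs sequenced. A regression on co-assayed BCL2-family reference pairs converts the normalised counts of each replicate to an apparent Kd. Each pool was mated in three replicate cultures.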

Parent: Ab-95, a human scFv built as VH, a 15-residue (Gly4Ser)3 linker, VL. Only the CDRs of the light chain vary.
VH: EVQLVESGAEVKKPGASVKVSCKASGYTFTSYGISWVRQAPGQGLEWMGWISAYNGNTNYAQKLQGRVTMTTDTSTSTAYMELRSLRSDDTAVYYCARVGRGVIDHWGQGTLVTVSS
VL: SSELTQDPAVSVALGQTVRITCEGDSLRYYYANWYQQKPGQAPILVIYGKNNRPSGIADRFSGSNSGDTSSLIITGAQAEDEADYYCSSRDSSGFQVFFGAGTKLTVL

Variants are written as CDR1, CDR2 and CDR3 of the light chain (limits as in the source). Parent: EGDSLRYYYAN, GKNNRPS, SSRDSSGFQVF.
Affinities are written as log10 Kd with Kd in nM; a lower number is a better binder.
An entry "nd" has no value in the source: the pair was not observed among the diploids in that replicate. This suggests poor binding but is not conclusive.

| CDR-L1 | CDR-L2 | CDR-L3 | replicates, log10 nM | control signals |
|---|---|---|---|---|
| EGSSLRYMYAN | GKANRPS | SSRDSSGFQVF | 2.16 / 2.10 / 1.94 | 3/9 (4.50) |
| EGDSLRMYYAN | GKNLRPS | SSRLSSGFQVF | 5.13 / nd / nd | 2/9 (3.33) |
| EGDTLRQYYAN | GKNNRPS | SSRDSLGFQVF | 2.90 / 3.28 / 2.42 | 2/9 (4.53) |
| EGDDLRYYYAN | CKNNRPS | SSFDSSGFQVF | 4.28 / nd / nd | 2/9 (3.50) |
| EGDSLRYYYAN | GKNNRAS | SSRDSSPFQVK | 4.23 / 3.39 / 4.35 | 4/9 (3.41) |
| EGDSLRYYYAN | GKNNRPS | SFRDSSGMFVF | 4.01 / nd / nd | 1/9 (3.75) |
| EGDSFRYYYAE | GKNNRPS | SSRDSSGFQVI | 4.26 / 3.91 / nd | 5/9 (3.64) |
| EGDSLRLYYAN | GKNIRPP | SSRDSSGFQVF | 3.40 / 2.85 / 2.39 | 4/9 (3.97) |
| EGDFLRYYYAN | VKNNRPS | SSRDSSGFQCF | nd / nd / 3.30 | 0/9 |
| EGDSLRYYYQN | CKNNRPS | SSRWSSGFQVF | 3.62 / 5.65 / 4.69 | 5/9 (3.99) |
| EGDSLRYYYAN | GKNNRPS | SQRDSRGWQVF | 3.45 / 4.38 / nd | 3/9 (3.42) |
| EADSLRYYYAR | GKNNRPS | SSRDVSGFQVF | nd / nd / nd | 1/9 (3.39) |
| EGDSLRYYYAN | GLNNRPS | SSRDSSGFQNF | 3.50 / 2.40 / nd | 2/9 (3.43) |
| TGDSLRYYYAN | SKMNRPS | SSRDSSGFQVF | 3.01 / 2.83 / 3.10 | 6/9 (3.88) |
| EGDKNRYYYAN | GKNNRPS | SSRDSKGFQVF | nd / nd / nd | 2/9 (3.29) |
| EGDSLRYYYAN | GFNNRPS | SARDSSGFQVF | 3.45 / 3.20 / 2.89 | 5/9 (3.79) |
| EGDSLRYYYAN | GKNHRPS | SSRDSSRFQHF | nd / nd / nd | 1/9 (4.98) |
| EGKSLRYYYAN | GKNNNPS | NSRDSSGFQVF | 3.54 / 4.42 / nd | 1/9 (3.35) |
| EGDSLRYYYAN | GKNNRPS | KSRDSSAFQHF | 4.43 / 5.52 / nd | 1/9 (5.30) |
| CGDSLRYYYAN | GKNNRPS | SSHDSSGFQVC | 3.16 / 3.85 / 3.20 | 4/9 (4.67) |
| EGDSLRYYYAN | GKNNRSS | SSRDSSGPQVS | 3.30 / nd / nd | 2/9 (4.35) |
| EGDSLRYYYAK | GLNNRPS | SSRWSSGFQVF | nd / nd / 3.51 | 4/9 (4.00) |
| EGDSLRYYYAN | GSNNRPS | SSRNSSGFPVF | 3.31 / 3.01 / 2.70 | 6/9 (4.10) |
| EGDSVRGYYAN | GKNNRPS | SSRRSSGFQVF | 3.21 / 3.02 / 2.27 | 3/9 (3.90) |
| EGDSLRHYYHN | GKNNRPT | SSRDSSGFQVF | 3.84 / 3.15 / nd | 2/9 (3.31) |
| EGDSLRYYYAN | GKNNRRS | SPRDSSGWQVF | 4.31 / 2.90 / nd | 1/9 (4.67) |
| EGDSLRYDYAN | GKNNRPS | SSRDPSGFGVF | 2.20 / 2.33 / 2.21 | 1/9 (4.06) |
| EGDSLREYYAN | GKNNRPS | SSRDSYGFQVF | 4.21 / 5.25 / nd | 3/9 (3.88) |
| EGGSLRYYYAN | GKNNRPS | SSRDSSGFDCF | 2.68 / 2.30 / 2.16 | 2/9 (4.11) |
| EGDSLRYYYAP | GKNNEPS | SSRDWSGFQVF | nd / nd / nd | 0/9 |
| AVDSLRYYYAN | GKNNYPS | SSRDSSGFQVF | nd / nd / 4.30 | 1/9 (4.23) |
| EGDSLRYYVAI | GKINRPS | SSRDSSGFQVF | 3.23 / 3.88 / 2.88 | 5/9 (3.64) |
| EGDSLRKYYAN | GKNNVFS | SSRDSSGFQVF | 3.16 / nd / 3.00 | 4/9 (3.97) |
| EGDHLRYYYAN | GKNNRPS | SYRDSDGFQVF | 3.43 / 5.60 / 3.49 | 4/9 (3.92) |
| EWDSLRYYYAN | GKNNRPS | SSRDWSGFQVS | 4.72 / nd / 4.30 | 2/9 (4.11) |
| EGDSLRYHYAN | YKNNRPS | SSRDSSGFTVF | 2.77 / 2.91 / 2.90 | 3/9 (3.95) |
| EIDSLRYYYAN | GGNNRPS | SSRDSGGFQVF | 3.45 / 3.99 / 3.37 | 4/9 (3.71) |
| EGDSLRYYYAN | GTNNGPN | SSRDSSGFQVF | nd / nd / nd | 2/9 (3.62) |
| EGDSLRYYYAQ | GTNNRPS | SSRDSSGFQVH | 3.17 / nd / nd | 3/9 (3.91) |
| EGDSLRYTYAN | GKNNRHS | SSRDSSGMQVF | 2.30 / 2.26 / 2.17 | 2/9 (4.04) |
| EGDSLRYYYAN | GKNNRPS | SSRDLLGFQVF | 2.46 / 1.91 / 1.38 | 1/9 (4.49) |

Top 3 of the variants detected in all replicates, tightest first:

| CDR-L1 | CDR-L2 | CDR-L3 | replicates, log10 nM | control signals |
|---|---|---|---|---|
| EGDSLRYYYAN | GKNNRPS | SSRDLLGFQVF | 2.46 / 1.91 / 1.38 | 1/9 (4.49) |
| EGSSLRYMYAN | GKANRPS | SSRDSSGFQVF | 2.16 / 2.10 / 1.94 | 3/9 (4.50) |
| EGDSLRYTYAN | GKNNRHS | SSRDSSGMQVF | 2.30 / 2.26 / 2.17 | 2/9 (4.04) |

Background: pairings of library AAYL52 with three empty control strains gave a value in 28% of cases (median 3.91, 5th percentile 2.90). Values in that range, when seen in few replicates, are hard to tell from nonspecific mating. Also given: how often the same scFv was detected with the empty control strains, with their mean in brackets.
For reference, the parent read 2.31 as the reference entry and 2.25 as a member of this library.